Earlier results as cited in article PMC8215855 (Journal of medicinal chemistry, 2020).

Target: SphK2
Details: read-out: SphK2 Ki; previous work in the group; cited from earlier work

For `CCCCCCCCc1ccc(-c2noc([C@@H]3CCCN3C(=N)N)n2)cc1` [Compound 7], the Ki is given as 1300 nM.
